Reference: patent publication US20120094295A1, “NEURODEGENERATIVE DISEASE DIAGNOSTIC COMPOSITIONS AND METHODS OF USE” (The Johns Hopkins University, priority 2008, published 2012)

Test system: glutamate transport
Assay: Functional glutamate transport in synaptosomal preparations from brain cortex of treated mice
Assay type: in vivo, mouse
Conditions: WT mice, 12.5 or 25 mg/kg/day oral, 10 days

Compound: CS(=O)(=O)c1ccc([C@@H](O)[C@@H](CO)NC(=O)C(Cl)Cl)cc1 [TAP, thiamphenicol]
- functional glutamate transport in cortical synaptosomal preparations: TAP-dependent increase in functional glutamate transport
